From ChEMBL document CHEMBL2163302, “Allyl m-trifluoromethyldiazirine mephobarbital: an unusually potent enantioselective and photoreactive barbiturate general anesthetic” (J Med Chem, 2012)

By UniProt entry, the sequences of proteins in these tests, tags left out. Where a name states a change or a piece, a line headed by the entry shows the natural chain unless it says otherwise.
UniProt P14867: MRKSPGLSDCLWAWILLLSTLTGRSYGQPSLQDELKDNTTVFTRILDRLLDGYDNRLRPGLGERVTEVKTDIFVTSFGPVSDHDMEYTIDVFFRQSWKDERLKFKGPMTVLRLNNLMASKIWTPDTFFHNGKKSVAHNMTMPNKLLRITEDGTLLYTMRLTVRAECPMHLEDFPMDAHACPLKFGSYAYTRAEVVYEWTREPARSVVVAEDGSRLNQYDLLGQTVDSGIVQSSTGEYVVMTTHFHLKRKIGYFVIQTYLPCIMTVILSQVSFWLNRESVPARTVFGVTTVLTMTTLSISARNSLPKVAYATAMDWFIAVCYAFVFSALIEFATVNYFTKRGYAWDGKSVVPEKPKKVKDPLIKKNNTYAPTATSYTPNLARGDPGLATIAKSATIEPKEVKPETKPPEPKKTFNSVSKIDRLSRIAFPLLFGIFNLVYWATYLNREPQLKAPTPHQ
UniProt P47870: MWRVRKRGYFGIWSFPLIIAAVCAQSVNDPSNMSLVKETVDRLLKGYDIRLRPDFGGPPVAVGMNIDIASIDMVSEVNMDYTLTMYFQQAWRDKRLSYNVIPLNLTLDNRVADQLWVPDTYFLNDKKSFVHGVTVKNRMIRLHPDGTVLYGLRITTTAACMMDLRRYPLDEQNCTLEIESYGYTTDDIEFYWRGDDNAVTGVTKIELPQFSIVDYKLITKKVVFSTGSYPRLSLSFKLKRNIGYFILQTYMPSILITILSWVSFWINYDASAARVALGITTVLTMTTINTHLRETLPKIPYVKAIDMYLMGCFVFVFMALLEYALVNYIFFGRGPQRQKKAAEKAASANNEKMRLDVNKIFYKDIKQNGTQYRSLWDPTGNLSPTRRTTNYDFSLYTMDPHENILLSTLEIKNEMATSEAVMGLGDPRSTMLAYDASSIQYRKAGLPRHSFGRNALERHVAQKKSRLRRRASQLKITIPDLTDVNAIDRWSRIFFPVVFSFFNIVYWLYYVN
UniProt P18507: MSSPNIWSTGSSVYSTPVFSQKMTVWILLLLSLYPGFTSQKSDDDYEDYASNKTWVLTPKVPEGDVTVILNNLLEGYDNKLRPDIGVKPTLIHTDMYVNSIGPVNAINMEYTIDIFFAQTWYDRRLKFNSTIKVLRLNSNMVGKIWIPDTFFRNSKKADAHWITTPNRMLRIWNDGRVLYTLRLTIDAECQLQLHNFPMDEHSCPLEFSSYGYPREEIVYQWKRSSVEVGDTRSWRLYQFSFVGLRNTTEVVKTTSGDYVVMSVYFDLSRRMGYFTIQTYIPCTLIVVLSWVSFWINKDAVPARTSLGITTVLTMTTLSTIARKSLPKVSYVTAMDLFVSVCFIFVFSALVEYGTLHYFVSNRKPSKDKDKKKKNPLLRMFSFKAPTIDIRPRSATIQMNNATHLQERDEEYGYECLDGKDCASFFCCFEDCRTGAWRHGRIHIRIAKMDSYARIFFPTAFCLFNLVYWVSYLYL

Biological target: GABA-A receptor; alpha-1/beta-2/gamma-2 (Homo sapiens) (UniProt P14867+P47870+P18507)
Assay: Activation of human alpha1beta2gamma2L GABA A receptor expressed in Xenopus laevis oocytes assessed as increase in GABA-induced current response at 65 uM by two-electrode voltage clamp assay relative to untreated control
Type: cell-based
Conditions: Oocyte

CCCC(C)C1(CC)C(=O)NC(=O)NC1=O (stereo unspecified) [PENTOBARBITAL] was tested, and the fold change (FC) was 4.
